Earlier results as cited in patent US20060088591A1, “Tablets from a poorly compressible substance” (priority 2004, published 2006).

Details: under normal conditions

## Vitamin E succinate polyethylene glycol 1000 [Vitamin E TPGS]
  stability to hydrolysis: very stable and does not hydrolyze
